The source of these data is BindingDB's records for PubMed 7520908 (Janssen Research Foundation, 1994).

Protein sequences, listed by entry. Tags and fused reporters are not part of them.
UniProt P18901, whole entry: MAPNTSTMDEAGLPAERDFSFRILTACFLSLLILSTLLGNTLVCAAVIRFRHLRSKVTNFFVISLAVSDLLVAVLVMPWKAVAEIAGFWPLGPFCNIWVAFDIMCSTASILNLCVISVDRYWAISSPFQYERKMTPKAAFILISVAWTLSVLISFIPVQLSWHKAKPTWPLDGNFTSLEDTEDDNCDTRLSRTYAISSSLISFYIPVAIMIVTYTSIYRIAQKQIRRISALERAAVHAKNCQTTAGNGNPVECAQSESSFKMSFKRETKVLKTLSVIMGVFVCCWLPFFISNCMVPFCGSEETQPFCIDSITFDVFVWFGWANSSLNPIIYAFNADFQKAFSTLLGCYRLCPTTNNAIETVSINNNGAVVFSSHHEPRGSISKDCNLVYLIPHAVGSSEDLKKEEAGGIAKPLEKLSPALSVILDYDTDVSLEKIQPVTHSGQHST

For the experiment, the target named is D(1A) dopamine receptor (Rattus norvegicus, UniProt P18901).

By Ki is commonly meant a dissociation constant, usually derived from enzyme kinetics or from competition with a known ligand. Higher therefore signals a looser hold on the target. `Cc1nc2n(c(=O)c1CCN1CCC(c3noc4cc(F)ccc34)CC1)CCCC2` [3-{2-[4-(6-Fluoro-benzo[d]isoxazol-3-yl)-piperidin-1-yl]-ethyl}-2-methyl-6,7,8,9-tetrahydro-pyrido[1,2-a]pyrimidin-4-one(risperidone)] gave a Ki of over 10 µM.
